The source of these data is US20160220669A1 (Hoffmann-La Roche, published 2016).

For assay [1], the target named is T1, Human CSF-1R Extracellular Domain (CSF-1R-ECD) (R&D-Systems 329-MR or subcloned … (human, UniProt P07333 20-512)).
T1 construct: not shown: tag or fusion part (HisAvitag, or as in the bought product)
As to the kind of experiment: SPR (Biacore A100), 35 C, antibody captured by anti mouse Fc-gamma, CSF-1R-ECD in solution, Langmuir 1:1.

In assay [2] the target is T2, human CSF-1R fragment delD4 (comprising the extracellular subdomains D1-D3 and D5) (human, UniProt P07333 20-512).
T2 construct: Obtained as dimer and monomer; 'The dimeric form was used for all experiments'; Cleaved from Fc-His by PreScission protease; also called hCSF-1R-delD4
Description: SPR (Biacore T100), 25 C, reference-subtracted signal of nonbinding antibody.

For assay [3], the target named is human mutant CSF-1R L301S Y969F (human, UniProt P07333 20-972). Description: cell-based or functional assay.
The target of assay [4] is T3, human wildtype CSF-1R (full-length) (human, UniProt P07333 20-972). As to the kind of experiment: cell-based or functional assay.
In assay [5] the target is T3, human wildtype CSF-1R (full-length). Description: cell-based or functional assay. This is another data set of the same source.
The target in assay [6] is T2, human CSF-1R fragment delD4 (comprising …). As to the kind of experiment: SPR, antibody as analyte at 10 nM over immobilized CSF-1R fragment, report point 10 s after end of injection, reference subtracted. In general terms: Surface plasmon resonance follows binding to a sensor surface in real time, without labels.
Assay [7] addresses T3, human wildtype CSF-1R (full-length). As to the kind of experiment: cell-based or functional assay. This is another data set of the same source.

Read-outs that look alike come from different tables or passages of the source.

B1: Mab 2E10 (antibody, V domains shown)
VH: QVQLKESGPGLVAPSKSLSITCTVSGSSLDSFDISWIRQSPGKGLEWLGVIWTGGGTNYNSGFMSRLRITKDNSKSQVLLKMNSLQSDDTAIYYCVRDPRLYFDVWGAGTTVTVSS
VL: NIVMTQSPKSMSMSVGERVTLSCKASEDVVTYVSWYQQKPDQSPKLLIYGASNRYTGVPDRFTGSGSATDFTLTISSVQAEDLADYYCGQTFSYPTFGTGTKLEIK
notes: Murine monoclonal antibody from hybridoma
Broadly, the t½ is how long it takes for the measured level to halve. Read a low t½ as rapid decline. Molecule B1 had a t½ in assay [1] of 6.48 h. Further, the “binding signal [RU] before being set as 0” value (“binding signal” for short) in assay [2] and in assay [6] was -2 RU throughout. The “Mutant CSF-1R IC50 (cell viability, CellTiterGlo, 3D culture)” value (“Mutant CSF-1R IC50” for short) in assay [3] came to 4.9 µg/mL. Moreover, the “wtCSF-1R IC50 (cell viability, CellTiterGlo, 3D culture)” value (“wtCSF-1R IC50” for short) in assay [4] is 0.49 µg/mL. In assay [5], the “IC50 (survival of human monocytes with huCSF-1, CellTiterGlo)” value was found to be 0.06 µg/mL.

B2: Mab 2F11 (antibody, V domains shown)
VH: QVQLKESGPGLVAPSQSLSITCTVSGFSLTTYDISWIRQSPGKGLEWLGVIWTDGGTNYNSPFMSRLSIRKDNSKSQVFLKMNRLQTDDTAIYYCVRDQRLYFDVWGAGTTVTVSS
VL: NIVMTQSPKSMSMSVGERVTLNCKASEDVNTYVSWYQQQPEQSPKLLIYGASNRYTGVPDRFTGGGSTTDFTLTISSVQAEDLADYFCGQSFSYPTFGTGTKLEIK
notes: Murine monoclonal antibody from hybridoma (NMRI mice); also called <CSF-1R>Mab 2F11; muMab 2F11
In assay [1], B2 yielded a t½ of 3.72 h. For the same molecule, the “binding signal” value in assay [2] and in assay [6] was -3 RU in each case. Further, in assay [3], the “Mutant CSF-1R IC50” value came out at 8 µg/mL. Moreover, the “wtCSF-1R IC50” value in assay [4] is 1.1 µg/mL. Also, the “IC50 (survival of human monocytes with huCSF-1, CellTiterGlo)” value in assay [5] was found to be 0.08 µg/mL.

B3: Mab 1G10 (antibody, V domains shown)
VH: RVQLKESGPGLVAPSQSLSITCTVSGFSLTSYDISWIRQSPGKGLEWLGVIWSGGGTNYNSPFMSRLRISKDDSRSQVFLKVNRLQTDDTAIYYCVRDLRLYFDVWGAGTTVTVSS
VL: KIVMTQSPKSMSVSVGERVSLSCKASEDVGTYVSWYQQKPEQSPKLLIYGSSNRYTGVPDRFTGSGSATDFTLTISSVQAEDLADYSCGQSFTYPTFGTGTKLEIK
notes: as for B1
B3: the t½ in assay [1] was determined as 3.07 h. Besides, the “binding signal” value in assay [2] and in assay [6] was -6 RU in each case. In addition, the “Mutant CSF-1R IC50” value in assay [3] is 14.2 µg/mL. Further, in assay [4], the “wtCSF-1R IC50” value is 0.29 µg/mL. Besides, the “IC50 (survival of human monocytes with huCSF-1, CellTiterGlo)” value in assay [5] was 0.06 µg/mL.

B4: Mab 2H7 (antibody, V domains shown)
VH: QVQLKESGPGLVAPSKSLSITCTVSGSSLDSFDISWIRQPPGKGLEWLGVIWTGGGTNYNSGFMSRLRISKDNSKSQVFLKMSSLQSDDTAIYYCVRDPRLYFDVWGAGTTVTVSS
VL: NIVMTQSPKSMSMSVGERVTLSCKASEDVVTYVSWYQQKPEQSPKLLIYGASNRYTGVPDRFTGSGSATDFTLTISSIQAEDLADYYCGQTFSYPTFGTGTKLEIK
notes: as for B1
Molecule B4 registered a t½ in assay [1] of 6.17 h. Also, the “binding signal” value in assay [2] and in assay [6] was -9 RU in each case. In addition, in assay [3], the “Mutant CSF-1R IC50” value stood at 5.3 µg/mL. Also, in assay [4], the “wtCSF-1R IC50” value is 0.31 µg/mL. Moreover, the “IC50 (survival of human monocytes with huCSF-1, CellTiterGlo)” value in assay [5] is 0.03 µg/mL.

B5: hMab 2F11-e7 (antibody, V domains shown)
VH: QVQLVQSGAEVKKPGASVKVSCKASGYTFTSYDISWVRQAPGQGLEWMGVIWTDGGTNYAQKLQGRVTMTTDTSTSTAYMELRSLRSDDTAVYYCARDQRLYFDVWGQGTTVTVSS
VL: DIQMTQSPSSLSASVGDRVTITCRASEDVNTYVSWYQQKPGKAPKLLIYAASNRYTGVPSRFSGSGSGTDFTLTISSLQPEDFATYYCQQSFSYPTFGQGTKLEIK
B5: the “IC50 (survival of human monocytes with huCSF-1, CellTiterGlo)” value in assay [7] turned out to be 0.04 µg/mL.

B6: hMab 2F11-f12 (antibody, V domains shown)
VH: QVQLVQSGAEVKKPGSSVKVSCKASGFSLTTYDISWVRQAPGQGLEWMGVIWTDGGTNYNSPFMSRVTITKDESTSTAYMELSSLRSEDTAVYYCVRDQRLYFDVWGQGTTVTVSS
VL: DIQMTQSPSSLSASVGDRVTITCRASEDVNTYVSWYQQKPGKAPKLLIYGASSLQSGVPSRFSGSGSGTDFTLTISSLQPEDFATYYCGQSFSYPTFGQGTKLEIK
Turning to B6, in assay [7], the “IC50 (survival of human monocytes with huCSF-1, CellTiterGlo)” value worked out at 0.09 µg/mL.
